Results taken from PMC9569529, “Safe and Efficient Sigma1 Ligand: A Potential Drug Candidate for Multiple Sclerosis” (International Journal of Molecular Sciences, 2022).

Experiments:
[1] = test system: S. typhimurium TA100; test: Ames test; conditions: 7i 40 µg/plate, positive control MNNG 0.25
[2] = test system: S. typhimurium TA1535; test: Ames test; conditions: 7i 40 µg/plate, positive control MNNG 0.25

## MNNG
[1]
  Ames TA100 −S9 (Mean revertants/well per title): 13.5
[2]
  Ames TA1535 −S9 (Mean revertants/well per title): 85.9
